# Bioassay records: PubChem, Broad Institute
# Most compounds without a hit are left out; they make up all but 1.9% or so of the library.
# Yeast UUG start: alters start codon recognition fidelity in yeast; AID 602363; activity score, % at 18.7 µM; 350,000 tested, 0.13% active; S. cerevisiae UUG-firefly luciferase reporter, luminescence/redox ratio;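 active means replicate mean at a twofold rise or more, about +100% in these data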;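 further: firefly luciferase made from a UUG start codon reports start codon fidelity; reporter light over untreated wells divided by growth signal over untreated wells; some hits fall short of that in this replicate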
# ERp5 block: inhibitors of ERp5-driven insulin aggregation, primary screen, biochemical, turbidity, absorbance 650 nm, single point. Protein disulfide-isomerase A6 (Homo sapiens), Q15084. 90 min. inhibition, % at 9.99 µM. 350,000 tested, 0.05% active. AID 651711, 2012;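 active = mean replicate inhibition above about 25%, with every replicate also reaching it, limit read from the data, passing the limit was not always enough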
# ARNT-TACC3 inh: disruptors of ARNT/TACC3 protein interaction, primary screen, biochemical, AlphaScreen, single concentration; inhibition, % at 9.99 µM; AlphaScreen His-ARNT PAS-B/GST-TACC3 binding, luminescence; TACC3 fragment carries E629A point mutation; 390,000 tested, 0.66% active; AID 623870, 2012; Transforming acidic coiled-coil-containing protein 3 (Homo sapiens), Q9Y6A5;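 active = mean inhibition of replicates at least 50% and at least half of replicates each reaching 50%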;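 also: 0% = complete ARNT plus TACC3 wells and 100% = ARNT alone without TACC3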
# PDI inh: inhibitors of human PDI, primary screen, biochemical, turbidity, single point, plate reader; Protein disulfide-isomerase (Homo sapiens), P07237; PDI insulin aggregation turbidity, A650, 90 min; inhibition, % at 10 µM; 350,000 tested, 0.052% active; AID 588391, 2011;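 active = mean inhibition across replicates of 30% or more, whatever share of single replicates reach that level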
# PglD inh: C. jejuni PglD acetyltransferase inhibitors, primary screen, biochemical, DTNB colorimetric, single point; purified PglD enzyme, DTNB colorimetric CoA detection; inhibition, % at 12.5 µM; 360,000 tested, 0.098% active; in the data active = inhibition above about 16%, passing the limit was not always enough
# FGF22 binding-1: binders of human FGF22 protein, primary screen, FGF22 synaptogenesis inhibitor project, biophysical, thermal shift, single point; recombinant FGF22 thermal shift, SYPRO orange fluorescence; percent of sucrose octasulfate shift, DMSO zero; AID 651658, 2012; activity (Tm shift, normalised), % at 9.99 µM; 340,000 tested, 1.5% active;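 active = mean Tm shift, scaled 0 neutral to 100 positive control, at about 1.3% or above, every replicate too, limit read from the data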
# FGF22 binding-2: binders of human FGF22 protein, dose response, FGF22 synaptogenesis inhibitor project, biophysical, thermal shift, cherry-pick retest; shares compounds with FGF22 binding-1; recombinant FGF22 thermal shift, SYPRO orange fluorescence; thermal shift activity, °C (ΔTm) at 38 µM; 1,000 tested, 2% active; AID 720646, 2013;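 active = fitted rise in melting shift crosses a set limit at or below the top valid dose tested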
# SYPRO no-protein: compound-only thermal shift signal without protein, dose response, artefact control for FGF22 binder project, biochemical, cherry-picked samples, RT-PCR instrument; shares compounds with FGF22 binding-1; compound-only SYPRO orange thermal shift counter-screen, no protein; AC50, µM (series often up to 38 µM); 1,000 tested, 2% active; AID 743019, 2013;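 active = rising signal whose fitted curve reaches the 0.54 level within the top valid dose, showing a melting point, actives reach about 13 µM in these data; inactive = the rest, including activity in the opposite direction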; also: value is where the raw curve crosses a fixed level and not half-maximal
# * marks the source's active call; other numbers are inactive results; i = inactive; / = no result given; [ ] = another dose, or the depositor's remark.
No. | canonical_smiles | Yeast UUG start | ERp5 block | ARNT-TACC3 inh | PDI inh | PglD inh | FGF22 binding-1 | FGF22 binding-2 | SYPRO no-protein
1 | COC(=O)C[C@@H]1CC[C@H]2[C@@H](COc3ccc(NC(=O)NC(C)C)cc3C(=O)N2C)O1 | -5 | -5 | 2 | / | -2 | 1.3* | 0.025 | i
2 | Cc1nn(C)cc1NC(=O)C[C@H]1CC[C@@H]2[C@@H](COc3ccc(NC(=O)NC(C)C)cc3C(=O)N2C)O1 | 3 | 0 | 4 | / | 2 | 1.6* | 0.039 | i
3 | COc1ccc(NC(=O)N(C)C[C@H]2OCCCC[C@H](C)Oc3ccc(NC(=O)c4ccncc4)cc3C(=O)N([C@@H](C)CO)C[C@@H]2C)cc1 | 12 | / | 2 | / | 7 | 0 | / | /
4 | CCNC(=O)C1(C)CCN(Cc2ccc(C(F)(F)F)cc2)C1 (centres undefined) | -16 | 3 | / | 4 | 4 | 0 | / | /
5 | CCNC(=O)C1(C)CCN(Cc2ccc(OC(F)(F)F)cc2)C1 (centres undefined) | -18 | 1 | / | 6 | -1 | 1.4* | -0.008 | i
6 | CCCNC(=O)Nc1ccc2c(c1)C(=O)N(C)[C@@H]1CC[C@H](CC(=O)NC)O[C@@H]1CO2 | -11 | / | -1 | / | -1 | 0 | / | /
7 | CC(=O)c1sc(NC(=O)c2cc(=O)c3ccccc3o2)nc1C | -22 | 5 | -1 | 0 | 3 | 5.1* | -0.077 | i
8 | Cc1ccc(N(C(=O)c2csnn2)C(C(=O)NC2CCCC2)c2ccccn2)c(C)c1 (centres undefined) | -1 | 4 | -6 | -9 | 1 | 1.6* | 0.21 | i
9 | Cc1ccc(-n2nc(C)c(/C=N/NC(=O)c3cccnc3)c2Cl)cc1 | -11 | 1 | 0 | -12 | 4 | 0 | / | /
10 | Cc1nn(-c2ccccc2)c(Cl)c1/C=N/NC(=O)c1cccnc1 | / | 7 | -9 | -2 | / | 17* | 0.11 | i
11 | CCCC(=O)Nc1ccc2c(c1)OC[C@@H](C)N(C(=O)c1cnccn1)C[C@@H](C)[C@@H](OC)CN(C)C2=O | -5 | 2 | 0 | / | -3 | 0 | / | /
12 | Cc1cc(C(=O)O/N=C(\N)c2ccncc2)ccc1[N+](=O)[O-] | / | 21 | 3 | -6 | / | 18* | 0.21 | i
13 | C/C=C/c1ccc2c(c1)O[C@@H](CN(C)C(=O)c1cccc(F)c1)[C@@H](C)CN([C@@H](C)CO)S2(=O)=O | -1 | 10 | -1 | / | 2 | 0 | / | /
14 | O=C1Cc2ccccc2C(=O)N1c1cccc(Cl)c1 | -17 | 1 | -3 | -1 | 5 | 2.2* | 0.02 | i
15 | O=C1Cc2ccccc2C(=O)N1c1ccccc1 | -21 | -3 | / | 12 | -5 | 42 | / | /
16 | Oc1ccc(/C=C/c2cc(O)cc(O)c2)cc1 | -74 | 5 | 15 | -6 | -2 | 0 | / | /
17 | Oc1cc(O)cc(C=Cc2ccc(O)c(O)c2)c1 | / | -1 | / | / | / | 2.0* | 0.073 | i
18 | CC(=O)Nc1cc(-c2ccccc2Cl)cn2c(-c3ccc(S(C)(=O)=O)cc3)cnc12 | -5 | 3 | / | 2 | 3 | 1.7* | -0.006 | i
19 | COc1ccccc1-c1cc(NC(C)=O)c2ncc(-c3ccc(S(C)(=O)=O)cc3)n2c1 | -10 | 0 | / | -1 | 5 | 0 | / | /
20 | COc1ccc(Cc2nnc(NS(=O)(=O)c3ccccc3)s2)cc1 | -8 | -5 | -5 | 0 | 0 | 26* | 0.06 | i
21 | O=C(c1ccccc1)N1CC(=O)N2[C@H](C1)[C@@H](c1ccc(C#CC3CC3)cc1)[C@@H]2CO | / | -5 | / | / | / | 1.8* | 0.055[42 µM] | i
22 | O=C(c1ccccc1)N1CC(=O)N2[C@H](CO)[C@@H](c3ccc(C#CC4CC4)cc3)[C@@H]2C1 | / | -6 | / | / | / | 0 | / | /
23 | Cc1ccc(-c2ccc([C@H]3[C@@H](CO)N4C(=O)CN(C(=O)c5ccc(F)cc5)C[C@@H]34)cc2)cc1 | / | -4 | / | / | / | 1.8* | 0.12 | i
24 | Cc1ccc(-c2ccc([C@H]3[C@H](CO)N4C(=O)CN(C(=O)c5ccc(F)cc5)C[C@@H]34)cc2)cc1 | / | 3 | / | / | / | 1 | / | /
25 | O=C(c1ccc2c(c1)OCO2)N1CC(=O)N2[C@@H](CO)[C@H](c3ccc(C#CCC4CCCC4)cc3)[C@@H]2C1 | / | -2 | / | / | / | 1.8* | -0.027 | i
26 | Cc1ccc(-c2ccc([C@@H]3[C@@H](CO)N4C(=O)CN(C(=O)c5ccc(F)cc5)C[C@H]34)cc2)cc1 | / | -6 | / | / | / | 1.2* | -0.12 | i
27 | CO[C@H]1CN(C)C(=O)c2cc(NC(=O)NC(C)C)ccc2OC[C@@H](C)N(Cc2cncnc2)C[C@H]1C | / | / | -8 | / | 8 | / | / | /
28 | Cc1ccc(S(=O)(=O)Nc2ccc3c(c2)C(=O)N([C@@H](C)CO)C[C@H](C)[C@@H](CN(C)S(=O)(=O)c2ccc(Cl)cc2)O3)cc1 | / | 4 | / | / | / | 0 | / | /
29 | COc1ccc2c3c(n(C)c2c1)[C@H](CO)N(C(=O)c1ccc(F)cc1)CC31CN(CC2CC2)C1 | / | 3 | / | / | / | 0 | / | /
30 | CCC(=O)N1CC2(CCN(Cc3nccs3)CC2)c2c(n(C)c3cc(OC)ccc23)[C@@H]1CO | / | 1 | / | / | / | 1.3* | 0.14 | i
31 | CCC(=O)N1CC2(CCN(Cc3nccs3)CC2)c2c(n(C)c3cc(OC)ccc23)[C@H]1CO | / | -4 | / | / | / | 0 | / | /
32 | CCCC(=O)Nc1ccc2c(c1)OC[C@H](C)N(Cc1ccccn1)C[C@@H](C)[C@@H](OC)CN(C)C2=O | / | 1 | 5 | / | -2 | 0 | / | /
33 | CC1(C(=O)NS(=O)(=O)c2cccc(Cl)c2)CCN1C(=O)Cc1ccc(-c2ccccc2)cc1 (centres undefined) | -6 | 0 | / | 1 | 5 | 1.9* | 0.083 | i
34 | O=C(c1cccc(F)c1)N1C[C@H]2[C@@H](c3ccccc31)[C@H](CO)N2C(=O)C1CCCCC1 | -1 | 1 | 4 | / | -3 | / | / | /
35 | COCC(=O)N1C[C@@H]2[C@H](c3ccccc31)[C@H](CO)N2C(=O)c1ccccc1F | 7 | 3 | -2 | / | 1 | 1.7* | -0.17[42 µM] | i
36 | COCC(=O)N1[C@H](CO)[C@H]2c3ccccc3NC[C@H]21 | -11 | 1 | -6 | / | 1 | 15* | 0.036 | i

# Random excerpt: 5 records from the list
No. | canonical_smiles | Yeast UUG start | ERp5 block | ARNT-TACC3 inh | PDI inh | PglD inh | FGF22 binding-1 | FGF22 binding-2 | SYPRO no-protein
14 | O=C1Cc2ccccc2C(=O)N1c1cccc(Cl)c1 | -17 | 1 | -3 | -1 | 5 | 2.2* | 0.02 | i
13 | C/C=C/c1ccc2c(c1)O[C@@H](CN(C)C(=O)c1cccc(F)c1)[C@@H](C)CN([C@@H](C)CO)S2(=O)=O | -1 | 10 | -1 | / | 2 | 0 | / | /
3 | COc1ccc(NC(=O)N(C)C[C@H]2OCCCC[C@H](C)Oc3ccc(NC(=O)c4ccncc4)cc3C(=O)N([C@@H](C)CO)C[C@@H]2C)cc1 | 12 | / | 2 | / | 7 | 0 | / | /
31 | CCC(=O)N1CC2(CCN(Cc3nccs3)CC2)c2c(n(C)c3cc(OC)ccc23)[C@H]1CO | / | -4 | / | / | / | 0 | / | /
20 | COc1ccc(Cc2nnc(NS(=O)(=O)c3ccccc3)s2)cc1 | -8 | -5 | -5 | 0 | 0 | 26* | 0.06 | i
